For the data set the following is noted: in vivo.

Consider `O[C@H]([C@H](O)[C@@H]1CO1)[C@H]1CO1` [dianhydrogalactitol], for which the DLT entry is “None”.

(Values after patent US11026914B2, “Use of dianhydrogalactitol and analogs and derivatives thereof to treat recurrent malignant glioma or progressive secondary brain tumor” (DelMar Pharmaceuticals, Inc., priority 2013, dated 2021).)
